# Experimental data reported in PubChem BioAssay AID924 (National Center for Advancing Translational Sciences (NCATS), 2007).
# The list shows a part of the results, in another mix than the full data. Results filed as inconclusive are left out. Active and inactive are the calls of the source. Calls follow the shape of the dose curve; as a rule, active = well fitted cell-killing curve with a large enough effect; inconclusive = small, poorly fitted or top-dose-only effect; inactive = no such curve, though single readings can be large or run the other way.
# Assay: qHTS Screen for Compounds that Selectively Target Cancer Cells with p53 Mutations: Cytotoxicity of p53ts Cells at the Permissive Temperature;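 also: 0% = DMSO and -100% = full killing by reference compound; nearly all actives have a fitted effect of over 55% in size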
# Settings: H1299-p53A138V at 32C, ATP luminescence viability, 24 h; at 46.1 µM (top of the series) unless noted
row,SMILES,"activity change, negative = cytotoxicity"
1,CCCOc1cccc(C(=O)NCC2(N3CCOCC3)CCCCC2)c1,inactive: -0.442%
2,N#CC1(Nc2ccccc2)CCN(CCc2ccccc2)CC1,inactive: -7.1%
3,CCOc1ccc(C(=O)NCC2(N3CCOCC3)CCCCC2)cc1,inactive: 0.318%
4,CCCCOc1ccccc1C(=O)NCC1(N2CCOCC2)CCCCC1,inactive: -3.02%
5,O=C(NCC1(N2CCOCC2)CCCCC1)c1ccccc1Br,inactive: 5.01%
6,O=C(OC1CN2CCC1CC2)C1c2ccccc2Oc2ccccc21 (stereo unspecified),inactive: -9.29%
7,O=C(NCC1(N2CCOCC2)CCCCC1)c1ccc(Cl)cc1,inactive: -2.75%
8,COc1ccccc1C(=O)NCC1(N2CCOCC2)CCCCC1,inactive: 0.0067%
9,COc1ccc(NC2CCN(CCc3ccccc3)CC2)c(OC)c1,inactive: -2.91%
10,Cc1ccccc1C(=O)NCC1(N(C)C)CCCCC1,inactive: 2.12%
11,CC(C)(C)c1ccc(C(=O)NCC2(N3CCOCC3)CCCCC2)cc1,inactive: -5.97%
12,CN(C)C1(CNC(=O)c2ccc(C(C)(C)C)cc2)CCCCC1,inactive: -6.12%
13,Fc1ccccc1NC1CCN(Cc2ccccc2)CC1,inactive: -15.2%
14,COc1cc(C(=O)NCC2(N3CCOCC3)CCCCC2)cc(OC)c1OC,inactive: -5.59%
15,CCC(CO)(C(=O)OC1CN2CCC1CC2)c1ccccc1 (stereo unspecified),inactive: -0.426%
16,CCOc1ncccc1C(=O)NCC1(N2CCOCC2)CCCCC1,inactive: -1.42%
17,O=C(O)C1(Nc2ccccc2)CCN(Cc2ccccc2)CC1,inactive: 5.38% [at 9.22 µM]
18,N/C(=N\O)c1c(N)no[n+]1[O-],inactive: -11.7%
19,O=C(NCC1(N2CCOCC2)CCCCC1)c1ccccc1,inactive: 0.152%
20,O=C(NCC1(N2CCOCC2)CCCCC1)c1ccccc1[N+](=O)[O-],inactive: 6.41%
21,O=C(NCC1(N2CCOCC2)CCCCC1)c1ccc([N+](=O)[O-])cc1,inactive: -2.64%
